Source: patent US6177441A, “Treating red blood cell solutions with anti-viral agents” (Cerus Corporation, priority 1998, dated 2001)

Experiments:
R17 [1] = test: Loss of QM anti-viral activity on pre-incubation in Adsol; light controls (Example 4); conditions: for Log Titer: dark
red blood cells [2] = test: IgG binding to treated red blood cells, FACScan (Example 10); conditions: control 3.43
red blood cells [3] = conditions: 80 μg/ml, low dose biotin label; untreated 96.2
R17 [4] = test: R17 inactivation by QM as a function of hematocrit (Example 2); conditions: for Log Titer: QM 1.0 μg/ml

## COc1ccc2nc3cc(Cl)ccc3c(NC(C)CCCN(CCCl)CCCl)c2c1.Cl.Cl (stereo not shown)
R17 [1]
  light-dependent kill of R17: no light-dependent kill
R17 [1]; 4 hour pre-incubation
  QM activity after pre-incubation in Adsol: not diminished
R17 [1]; QM 1 hour pre-incubation
  Log Titer: 4.0
R17 [1]; QM 4 hour pre-incubation
  Log Titer: 4.0
R17 [1]; previous results, not shown
  QM anti-viral activity upon pre-incubation in Adsol: did not decrease rapidly
Red blood cells [2]; 10 μg/ml
  Median Fluorescence (IgG binding): 5.00
Red blood cells [2]; 30 μg/ml
  Median Fluorescence (IgG binding): 7.77
Red blood cells [2]; 100 μg/ml
  Median Fluorescence (IgG binding): 15.8
Red blood cells [2]; 300 μg/ml
  Median Fluorescence (IgG binding): 48.7
Red blood cells [3]
  % RECOVERY, LOW: 94.6%
R17 [4]; 1.0 μg/ml, Htc 0-30%
  R17 inactivation: inactivates R17 in all of the Htc tested
R17 [4]; Htc 0%, control 8.8
  Log Titer: 2.0
R17 [4]; Htc 1%
  Log Titer: 4.0
